System: zebrafish embryos
Assay: Zebrafish embryonic development / WT morphology
Format: in vivo, Danio rerio (zebrafish)
Conditions: 3 dpf, vs. vehicle (data not shown)
Description: Figure 4. […] (N–P) Three categories of mpo transcription (N, normal; O, intermediate; P, severe) were defined based on the WISH results (three experiments). […] Scale bar equals 500 μm. Blue arrows indicate the pericardial edema, green arrows indicate tail shortening and curving, and red arrows indicate the FLT3-ITD AML mpo+ myeloid cells expansion. […] For all experiments: Zebrafish embryos were collected and kept in standard E3 medium at 28°C. Different concentrations of either drug were added to the E3 medium from 6 hr post fertilization (hpf) to 3 days post fertilization (dpf). Embryos treated with DMSO or 10 μM drug from 6 to 30 hpf were collected for mpo whole mount in situ hybridization (WISH) analysis. […] plasmid DNA containing FLT3/ITD sequence was microinjected into one-cell stage embryos, and the uninjected embryos were used as control. FLT3/ITD-injected embryos were treated with DMSO or 10 μM drug from 6 to 30 hpf.
Wild-type (WT) zebrafish were maintained under standard conditions, and embryos were staged as described ([He et al., 2014]). The study was approved by the Committee of the Use of Live Animals for Teaching and Research in The University of Hong Kong.

## CO[C@@H]1[C@H](N(C)C(=O)c2ccccc2)C[C@H]2O[C@]1(C)n1c3ccccc3c3c4c(c5c6ccccc6n2c5c31)C(=O)NC4 [PKC412, N-benzoylstaurosporine, reference compound]
  concentration at which pericardial defects begin: 500 nM

Source: paper PMC4307180, “Overcoming myelosuppression due to synthetic lethal toxicity for FLT3-targeted acute myeloid leukemia therapy” (eLife, 2014)
